Results: EP0533243B1, “Hydantoin and succinimide-substituted spiroindanylcamphorsulfonyl derivatives” (Merck & Co., Inc., priority 1991, dated 1993)

Target: T1, uterine OT receptors (Rattus norvegicus, UniProt P70536)
T1 sequence (P70536 1-388): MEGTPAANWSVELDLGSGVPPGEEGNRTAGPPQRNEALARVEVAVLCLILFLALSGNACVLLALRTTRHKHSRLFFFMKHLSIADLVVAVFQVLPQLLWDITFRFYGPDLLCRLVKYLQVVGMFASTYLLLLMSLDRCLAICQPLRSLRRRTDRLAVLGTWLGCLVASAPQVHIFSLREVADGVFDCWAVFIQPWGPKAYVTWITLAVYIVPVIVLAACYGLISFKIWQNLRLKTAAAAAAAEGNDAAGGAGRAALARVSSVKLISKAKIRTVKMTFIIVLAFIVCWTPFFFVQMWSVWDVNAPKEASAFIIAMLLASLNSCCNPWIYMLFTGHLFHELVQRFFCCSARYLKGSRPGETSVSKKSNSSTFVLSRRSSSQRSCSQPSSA
Experiment: [3H]oxytocin radioligand binding assay, saturation binding
Design: species or system rats
Conditions: uterus crude membrane preparation
Text: The high affinity binding of [^3H] […] 1985 J. Clin. Endocrinol. Metab. 60:37.

[tyrosyl, 3,5-[^3H]OT
Kd: 700 pM
